# Shown are actives, neighbours in structure and some others; about 0.43% of the full set was active somewhere.
# EPAC2 agonist: EPAC2 (human) agonism | Q8WZA2 | EPAC2 activation, biochemical qHTS; response scale: 100% = 6.5 mM cAMP response | Potency, µM (doses to about 154 µM), for inactives: top-dose activation, actives largely listed as activators | hit rate 0.079% among 360,000 | AID 720711; note: nearly all actives have a fitted effect of over 50% in size
#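 EPAC2 (100 nM) mixed with Rap1B loaded with BODIPY-GDP (250 nM) plus 50 uM unlabeled GDP; compounds pinned in, 5 min RT, then read every 5 min for 30 min (ex 480, em 540 nm). Normalized to cAMP control.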
# EPAC1 antagonist: blocks human EPAC1 exchange factor. hit rate 0.14% among 360,000. AID 720709. O95398. Potency, µM (highest dose often 115 µM), for the others: top-dose activity change, negative = inhibition, hits mostly inhibitors. EPAC1 GEF assay, Rap1b-BODIPY-GDP exchange fluorescence;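 note: plate controls were vehicle for no effect and positive control for full effect; nearly all actives have a fitted effect of over 50% in size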
# EPAC1 ag: activates human EPAC1 exchange factor | O95398 | EPAC1 agonist qHTS, biochemical assay; response scale: 100% = response to 6.5 mM cAMP | Potency, µM (highest dose often 154 µM), without a hit: top-dose activation, actives largely listed as activators | hit rate 0.073% among 360,000 | AID 720707; note: nearly all actives have a fitted effect of over 60% in size
#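 Normalized to 6.5 mM cAMP, activity reflects EPAC1-catalysed release of BODIPY-GDP from Rap1B, followed kinetically over 30 min at 480 nm excitation, 540 nm emission. Reaction contained 100 nM EPAC1, 250 nM Rap1B-BODIPY-GDP, 50 uM GDP.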
# EPAC2 antag: antagonists of human EPAC2; EPAC2 GEF exchange of Rap1B-BODIPY-GDP, fluorescence; Q8WZA2; Potency, µM (doses to about 114 µM), for inactives: at the highest dose activity, negative = inhibition, hits mostly inhibitors; hit rate 0.18% among 360,000; AID 720708; note: % is set by controls: 0 for no effect and ±100 for the full control effect; nearly all actives have a fitted effect of over 45% in size
# Rango-impB inh: prevents formation of the Rango-importin beta complex. Q14974. Rango CFP/YFP FRET sensor + importin beta, 45 min. Potency, µM (series often up to 92.2 µM), without a hit: at the highest dose inhibition of complex formation. hit rate 0.031% among 340,000. AID 540263; calls by dose curve;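 note: 0% = DMSO wells and 100% = buffer wells lacking importin beta; nearly all actives have a fitted effect of over 15% in size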
#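 Inhibition scored from the CFP 486 nm/YFP 530 nm FRET ratio 45 min after adding 0.125 microM importin beta to 50 nM Rango biosensor preincubated 5 min with compound (room temperature, PBS with DTT, Tween-20, BSA). No-importin wells as positive control.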
# Rango dissoc inh: inhibition of RanGTP-driven Rango-importin beta dissociation; O95149+P62826; Potency, µM (series often up to 46.1 µM), for inactives: at the highest dose activity change, negative = inhibition; Biochemical FRET Rango-importin beta, RanGTP-induced dissociation; hit rate 0.071% among 340,000; calls by dose curve; note: % of control where 0% means no effect; nearly all actives have a fitted effect of over 45% in size
#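 FRET read at 45 min, room temperature: inhibitors block the CFP/YFP signal rise when RanGTP (0.6 uM Ran, 2 mM GTP, 0.2 uM RCC1) frees Rango (0.1 uM) from importin beta (0.25 uM). Pre-read after 5 min compound exposure flags interference.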
# * = called active by the depositor; ? = inconclusive; · = not tested or not shown. Unless noted, calls come from the whole dose curve; as a rule, active = well fitted curve in the direction sought with a large enough effect; inconclusive = small, poorly fitted or top-dose-only effect, or another doubt; inactive = no such curve, though single readings can be large; an effect the other way counts as inactive or inconclusive. Potency is the fitted concentration of half-maximal effect.
# The line under a structure holds: EPAC1 ag | EPAC1 antagonist | EPAC2 agonist | Rango-impB inh | EPAC2 antag | Rango dissoc inh
> COc1ccc(OC)c(/C=N/OC(=O)Nc2ccc(Cl)cc2)c1
    6% | -16% | 18% | 3% | 6% | 1%
> O=C(Nc1ccc(Oc2ccc(Cl)cc2)c(Cl)c1)c1cc(I)cc(I)c1O
    -14% | 40µM* | 4% | -2% | ? | -3%
> COC1C(OC(=O)c2ccc(C)[nH]2)C(O)C(Oc2ccc3c(O)c(NC(=O)c4ccc(O)c(CC=C(C)C)c4)c(=O)oc3c2Cl)OC1(C)C (stereo not given)
    -11% | 40µM* | -2% | 3% | -15% | 9%
> O=C(O)C(NC(=O)c1ccccc1)=C(Cl)Cl
    0% | ? | 3% | -2% | 2% | 3%
> CN1/C(=C\C=C2C(=O)NC(=S)NC2=O)C(C)(C)c2ccccc21
    ? | 131% | 50µM* | ? | 200% | ?
> CC1(C)OC(c2ccccc2)=C/C(=C/C=C2C(=O)NC(=S)NC2=O)O1
    -119% | 77% | -42% | ? | ? | ?
> COc1ccc(-c2noc(=O)n2Cc2cc(C)ccc2C)cc1
    -7% | -7% | -1% | -2% | ? | 0%
> COc1ccc(N=Cc2c(O)n(Cc3ccccc3)c(=S)[nH]c2=O)c(OC)c1
    11% | -9% | 100µM* | ? | 1% | ?
> COc1ccc(OC)c(N=Cc2c(O)n(Cc3ccccc3)c(=S)[nH]c2=O)c1
    8% | 6% | ? | ? | 4% | ?
> N#CC(c1ccc(Cl)nn1)c1c(F)cccc1Cl (stereo not given)
    -10% | -5% | 9% | ? | 0% | -10%
> O=[N+]([O-])c1ccc(NCc2ccccc2)c2nonc12
    56µM* | 34% | 56µM* | ? | 36% | ?
> O=C1NC(=O)N(Cc2ccccc2)C(=O)/C1=C\c1ccco1
    -15% | ? | -3% | ? | -3% | ?
> CCCCN1C(=O)/C(=C\c2ccco2)C(=O)N(CCc2ccccc2)C1=O
    0% | 25µM* | 7% | -3% | -1% | -22%
> CCOC(=O)[C@]12Cc3cc(Cl)ccc3[C@H]1N(C(C)C)C(=O)c1ccccc12
    -7% | -5% | 9% | · | 17µM* | ·
> CCOC(=O)[C@]12Cc3ccccc3[C@H]1N(Cc1ccccc1)C(=O)c1cc(OC)ccc12
    4% | -24% | 8% | · | 28µM* | ·
> O=C1C(=Cc2cn(-c3ccccc3)nc2-c2ccc(OCc3ccc(Cl)cc3)cc2)SC(=S)N1CCS(=O)(=O)O
    7% | ? | 25% | · | 44% | ·
> O=C(C[C@@H]1CC[C@@H]2[C@H](COC[C@H](O)CN2Cc2cccc(C(F)(F)F)c2)O1)NCc1ccc(Cl)cc1
    -12% | -3% | 2% | · | ? | ·
> COc1cccc(C(C)(O)c2nc(-c3cccc(F)c3)cs2)c1 (stereo not given)
    -7% | -25% | 6% | · | ? | ·
> Cn1cccc1/C=C1/C(=O)NC(=S)N(Cc2ccc(F)cc2)C1=O
    -12% | 16µM* | 3% | 2% | 0% | -22%
> C#CCOCCOCCOCCNc1nc(N2CCN(C(=O)CCCCCCCCCCNC(=O)[C@H]([C@@H](C)CC)n3cc(CCCCN=C(N)N)nn3)CC2)nc(N2CCN(C(=O)CCCCCCCCCCNC(=O)[C@H](CO)n3cc(CCCCCN)nn3)CC2)n1
    -12% | ? | 4% | 73µM* | 10% | ?

# A different layout for some results above:
> O=[N+]([O-])c1ccc(NCc2ccccc2)c2nonc12
  EPAC1 ag = 56µM*; EPAC1 antagonist = 34%; EPAC2 agonist = 56µM*; Rango-impB inh = ?; EPAC2 antag = 36%; Rango dissoc inh = ?
> O=C1NC(=O)N(Cc2ccccc2)C(=O)/C1=C\c1ccco1
  EPAC1 ag = -15%; EPAC1 antagonist = ?; EPAC2 agonist = -3%; Rango-impB inh = ?; EPAC2 antag = -3%; Rango dissoc inh = ?
> CCCCN1C(=O)/C(=C\c2ccco2)C(=O)N(CCc2ccccc2)C1=O
  EPAC1 ag = 0%; EPAC1 antagonist = 25µM*; EPAC2 agonist = 7%; Rango-impB inh = -3%; EPAC2 antag = -1%; Rango dissoc inh = -22%

# The list goes on:
# The line under a structure holds: EPAC1 ag | EPAC1 antagonist | EPAC2 agonist | Rango-impB inh | EPAC2 antag | Rango dissoc inh
> O=c1[nH]c(=S)n(-c2ccccc2F)c(O)c1C=Nc1ccc(N2CCOCC2)cc1
    56µM* | 88% | ? | ? | 93% | ?
> O=C1C(=O)C(Cl)=C(Cl)C(Cl)=C1Cl
    11% | ? | 7% | · | -6% | ·
> Oc1ccc(Cl)c(Cl)c1
    -14% | -10% | 3% | -2% | -9% | 8%
> Clc1cc(Cl)c(-c2cc(Cl)c(Cl)cc2Cl)cc1Cl
    1% | -23% | 9% | -1% | 4µM* | 0%
> COCCCn1c(N)c(C(=O)OC(C)COC)c2nc3ccccc3nc21 (stereo not given)
    -4% | 8% | -7% | ? | 1% | ?
> CCCCOCCCn1c(N)c(C(=O)OC(C)COC)c2nc3ccccc3nc21 (stereo not given)
    -1% | 19% | 1% | ? | 7% | 9.2µM*
> COc1ccccc1Cc1c(-c2ccc(C)cc2)nc2cc(C)c(Br)c(C)n12
    ? | -20% | 15% | · | 7% | ·
> Cc1cccc(-n2c(O)c(/C=C/C=Nc3ccccc3)c(=O)[nH]c2=O)c1
    100µM* | 6% | -22% | ? | 9% | ?
> Cc1ccccc1-n1c(O)c(/C=C/C=Nc2ccccc2)c(=O)[nH]c1=O
    89µM* | 64% | ? | ? | 89% | ?
> CCc1nc2c(OCc3ccc(C(F)(F)F)cc3)cccn2c1N(C)C(=O)C(C)C
    -14% | -9% | 3% | · | ? | ·

# Grouped by structure: those above with a furan ring, fused or not
# The line under a structure holds: EPAC1 ag | EPAC1 antagonist | EPAC2 agonist | Rango-impB inh | EPAC2 antag | Rango dissoc inh
> O=C1NC(=O)N(Cc2ccccc2)C(=O)/C1=C\c1ccco1
    -15% | ? | -3% | ? | -3% | ?
> CCCCN1C(=O)/C(=C\c2ccco2)C(=O)N(CCc2ccccc2)C1=O
    0% | 25µM* | 7% | -3% | -1% | -22%

# (listing goes on)
# The line under a structure holds: EPAC1 ag | EPAC1 antagonist | EPAC2 agonist | Rango-impB inh | EPAC2 antag | Rango dissoc inh
> CN(N=Cc1ccc([N+](=O)[O-])cc1)c1ccccn1
    -13% | 5% | -190% | · | 133% | ·
> Cc1cccc(N2C(=O)NC(=O)/C(=C\c3cc(C)n(-c4sc5c(c4C#N)CCCC5)c3C)C2=O)c1C
    12% | 35µM* | -3% | -3% | -22% | -1%
> CCOC(=O)c1c(-n2c(C)cc(C=C3C(=O)NC(=O)NC3=O)c2C)sc2c1CCCC2
    1% | -2% | -7% | 0% | 4% | 16%
> COc1ccccc1N=Nc1ccc(N)c(C)c1
    5% | ? | 7% | 2% | -4% | -1%
> COc1ccc(C(SCC(NC(=O)OCc2ccccc2)C(=O)O)c2ccc(OC)cc2)cc1 (stereo not given)
    -4% | -4% | 3% | · | 14µM* | ·
> COc1ccc(NC(=O)CN(C)C(=O)CSC(c2ccccc2)c2ccccc2)cc1
    0% | -25% | 9% | 0% | -15% | -8%
> CCC(C)c1ccc(N2C(=O)NC(=O)/C(=C/c3cccn3CCOc3ccc(C)cc3)C2=O)cc1 (stereo not given)
    -23% | 45µM* | -31% | ? | -2% | -6%
> CCn1c(SCC(=O)Nc2nncs2)nnc1-c1ccco1
    -2% | 35% | 2% | -2% | 13% | -7%
> COc1cc(/C=C/c2nc3ccccc3c(=O)n2-c2ccccc2O)ccc1O
    9% | ? | 2% | ? | -26% | ?
> COc1cc(/C=C/c2nc3ccccc3c(=O)n2-c2cccc(O)c2)ccc1O
    5% | 50µM* | -1% | ? | -2% | ?
> Nc1ccc2ccc3cccc[n+]3c2c1
    100µM* | 342% | 112µM* | ? | 360% | ?
> CCOc1ccc(N2C(=O)/C(=C\c3cccs3)C(=O)NC2=S)cc1
    -3% | 22% | 6% | ? | 9% | 1%

# From PubChem BioAssay
